Our source for the Ki values is patent US5407823A, “Polypeptides having a dopaminergic receptor activity, nucleic acids coding for these polypeptides and use of these polypeptides for the screening of substances active on these polypeptides” (priority 1990, dated 1995).

Protein sequences, listed by entry. Tags and fused reporters are not part of them.
UniProt P19020, whole entry: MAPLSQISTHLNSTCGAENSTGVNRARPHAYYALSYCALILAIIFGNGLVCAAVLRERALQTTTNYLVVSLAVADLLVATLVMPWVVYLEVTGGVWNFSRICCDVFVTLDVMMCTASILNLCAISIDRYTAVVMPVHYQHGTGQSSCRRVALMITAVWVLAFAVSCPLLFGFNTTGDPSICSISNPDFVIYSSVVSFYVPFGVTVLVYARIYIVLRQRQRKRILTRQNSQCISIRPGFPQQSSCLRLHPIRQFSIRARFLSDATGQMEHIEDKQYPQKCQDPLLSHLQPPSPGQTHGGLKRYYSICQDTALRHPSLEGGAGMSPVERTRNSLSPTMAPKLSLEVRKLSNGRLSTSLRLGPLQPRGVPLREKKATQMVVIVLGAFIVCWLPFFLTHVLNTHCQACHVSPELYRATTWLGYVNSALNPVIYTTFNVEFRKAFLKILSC
UniProt P61169, whole entry: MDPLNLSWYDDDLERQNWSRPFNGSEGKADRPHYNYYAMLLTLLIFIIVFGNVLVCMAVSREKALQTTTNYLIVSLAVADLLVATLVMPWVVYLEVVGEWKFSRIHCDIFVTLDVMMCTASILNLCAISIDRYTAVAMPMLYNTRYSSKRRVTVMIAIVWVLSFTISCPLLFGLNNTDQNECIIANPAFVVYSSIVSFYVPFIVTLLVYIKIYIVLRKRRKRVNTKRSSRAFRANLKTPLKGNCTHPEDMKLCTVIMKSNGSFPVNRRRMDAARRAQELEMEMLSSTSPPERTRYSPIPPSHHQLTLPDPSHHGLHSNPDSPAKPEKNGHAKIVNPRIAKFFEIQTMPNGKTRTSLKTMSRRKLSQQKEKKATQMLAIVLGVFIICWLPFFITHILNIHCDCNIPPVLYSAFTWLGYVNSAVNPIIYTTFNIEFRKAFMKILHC

Test [1] deals with T1, D-3 receptor expressed in CHO cells (Rattus norvegicus, UniProt P19020).
T1 construct: expressed in transfected cells
Put plainly: Inhibition of 125I-iodosulpride binding to membranes of transfected CHO cells (D-3). The note with it: competition with 125I-iodosulpride, CHO cell membranes; mean ± standard deviation, 2-3 experiments.

In test [2] the target is D-2 receptor expressed in CHO cells (Rattus norvegicus, UniProt P61169). Put plainly: Inhibition of 125I-iodosulpride binding to membranes of transfected CHO cells (D-2). As to conditions: read-out: Ki Value D-2 receptor.

A word on the Ki: it is a dissociation constant, usually derived from enzyme kinetics or from competition with a known ligand. In turn, `CCN1CCCC1CNC(=O)c1cc(S(=O)(=O)CC)c(N)cc1OC` (centres unmarked) [Anisulpride] returned an inhibition constant Ki in test [1] of 3.8 ± 0.3 nM.
With `CN1CCc2cccc3c2[C@H]1Cc1ccc(O)c(O)c1-3` [Apomorphine], the inhibition constant (Ki) in test [2] came to 24 ± 2 nM.
